Experimental findings from US7951954B2, “Bezothiazol derivatives as Beta2 adrenoreceptor agonists” (AstraZeneca AB, priority 2006, dated 2011) are described below.

Chains of the proteins cited; added tags and fusions are not shown.
UniProt P07550, whole entry: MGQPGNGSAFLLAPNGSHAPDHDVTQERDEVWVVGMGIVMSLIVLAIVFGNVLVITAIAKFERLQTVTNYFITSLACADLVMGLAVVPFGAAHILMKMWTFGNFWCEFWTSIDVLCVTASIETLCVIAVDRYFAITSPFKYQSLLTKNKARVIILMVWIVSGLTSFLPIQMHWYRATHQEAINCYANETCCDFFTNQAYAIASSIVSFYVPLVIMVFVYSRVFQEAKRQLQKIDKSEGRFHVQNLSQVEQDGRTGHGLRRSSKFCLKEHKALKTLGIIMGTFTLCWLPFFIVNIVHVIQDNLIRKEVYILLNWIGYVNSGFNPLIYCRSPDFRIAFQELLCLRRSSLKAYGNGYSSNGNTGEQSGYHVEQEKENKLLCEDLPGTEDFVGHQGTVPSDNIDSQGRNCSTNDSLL

Structures are written as SMILES. Structures can show the parent of a compound that is named as a salt.

The assay addresses T1, Adrenergic β2 (Homo sapiens, UniProt P07550).
T1 construct: endogenous in cells; host or cells: H292 cells
In words: Adrenergic β2 mediated cAMP production in H292 cells (AlphaScreen cAMP detection). Format: cell-based. The note with it: 300 μM rolipram, 10 minutes with compound, read-out: β2 pEC50 (converted). Background: Changes in cAMP serve as a functional read-out for many G protein-coupled receptors.

For the molecule `O=c1[nH]c2c(O)ccc([C@@H](O)CNCCc3cccc(CNCc4ccccc4Cl)c3)c2s1` [Example 3, 7-[2-(2-{3-[(2-Chloro-benzylamino)-methyl]-phenyl}-ethylamino)-1R-hydroxy-ethyl]-4-hydroxy-3H-benzothiazol-2-one bis-trifluoroacetate salt], the EC50 was 0.316 nM. For `COc1ccccc1CNCc1cccc(CCNC[C@H](O)c2ccc(O)c3[nH]c(=O)sc23)c1` [Example 36, 4-Hydroxy-7-[1R-hydroxy-2-(2-{3-[(2-methoxy-benzylamino)-methyl]-phenyl}-ethylamino)-ethyl]-3H-benzothiazol-2-one bis-trifluoroacetate salt], the EC50 is 0.631 nM.
